One compound from US6448262B1, “Pesticidal and parasiticidal use of 2-(substituted thio) thiazolo-[4,5-b]pyridine compounds” (American Cyanamid Company, priority 1998, dated 2002) can be followed below.

Read-outs that look alike come from different tables or passages of the source.

This assay relates to Root-knot nematode, Meloidogyne incognita. The assay is classed as in vivo. Conditions: potted tomato, scored 4 weeks after inoculation. The source says:
Soil Nematicide Assay Targeting Root-knot Nematode, Meloidogyne incognita on Potted Tomato
The test compound is solubilized in acetone and diluted with water to the required test concentration. Silty loam soil in a 3 inch pot with a 3-week-old tomato transplant is drenched with the test solution. Four thousand root-knot nematode Meloidogyne incognita J2 larvae are dispensed in a aqueous suspension onto the soil. The pots are kept in the greenhouse and 4 weeks following inoculation of the pots, plant roots are washed free of soil and scored for the degree of root galling using the root-knot galling index identified below.

Take `CCCSP(=O)(OCC)SCCC` [Ethoprophos, reference compound]: the “Galling Index” value (rate 10 ppm soil drench) is on record as 0 (0), the “Galling Index” value (rate 25 ppm soil drench) is on record as 0^1 (0) and the “Galling Index” value (rate 50 ppm soil drench) is on record as 0^1 (0).
